Reference: BindingDB's records for US9090618

Tests used:
Experiment in all cases: Radioligand Binding Assay
Details in all cases: pH 7.4
[1] = biological target: Kappa-type opioid receptor (Homo sapiens, UniProt P41145)
Mu-type opioid receptor = Mu-type opioid receptor (Homo sapiens, UniProt P35372)
Nociceptin receptor = Nociceptin receptor (Homo sapiens, UniProt P41146)
[2] = biological target: Delta-type opioid receptor (Homo sapiens, UniProt P41143)

| SMILES | Ki [1] | Ki (Nociceptin receptor) | also measured |
| --- | --- | --- | --- |
| O=C(O)CN1CCC[C@H]1Cc1nc2ccccc2n1[C@H]1C[C@H]2CCC[C@@H](C1)N2[C@@H]1C[C@@H]2CCCC[C@@H](C2)C1 | 254 nM |  |  |
| O=C(O)CNc1nc2ccccc2n1C1C[C@H]2CCC[C@@H](C1)N2C1CCCCCCCCC1 (stereo partly drawn) |  |  | Ki (Mu-type opioid receptor): 1180 nM |
| O=C(O)CN1CCC[C@@H]1c1nc2ccccc2n1[C@H]1C[C@H]2CCC[C@@H](C1)N2[C@@H]1C[C@@H]2CCCC[C@@H](C2)C1 | 65.2 nM |  |  |
| NC(=O)/N=c1\[nH]c2ccccc2n1C1CCN(C2CCCCCCC2)CC1 |  | 36.7 nM |  |
| CCOC(=N)/N=c1\[nH]c2ccccc2n1C1CCN(C2CCCCCCC2)CC1 |  | 17.5 nM |  |
| O=C(O)CCN1CCC[C@H]1Cc1nc2ccccc2n1[C@H]1C[C@H]2CCC[C@@H](C1)N2[C@@H]1C[C@@H]2CCCC[C@@H](C2)C1 |  |  | Ki (Mu-type opioid receptor): 4340 nM |
| CONC(=N)/N=c1\[nH]c2ccccc2n1C1CCN(C2CCCCCCC2)CC1 | 26.2 nM | 22.4 nM |  |
| CS(=O)(=O)NCCN1CC[C@@H](Cc2nc3ccccc3n2[C@H]2C[C@H]3CCC[C@@H](C2)N3[C@@H]2C[C@@H]3CCCC[C@@H](C3)C2)C1 | 58.3 nM |  |  |
| O=C(O)CN1CCCC[C@H]1c1nc2ccccc2n1[C@H]1C[C@H]2CCC[C@@H](C1)N2[C@@H]1C[C@@H]2CCCC[C@@H](C2)C1 |  |  | Ki [2]: 6790 nM |
| O=C(O)CCN1CCC[C@H](c2nc3ccccc3n2[C@H]2C[C@H]3CCC[C@@H](C2)N3[C@@H]2C[C@@H]3CCCC[C@@H](C3)C2)C1 | 254 nM |  |  |
| COC(=O)/N=c1\n(CC(N)=O)c2ccccc2n1C1CCN(C2CCCCCCC2)CC1 |  | 37.1 nM |  |
| NC(=O)CN1CCC[C@H]1c1nc2ccccc2n1[C@H]1C[C@H]2CCC[C@@H](C1)N2[C@@H]1C[C@@H]2CCCC[C@@H](C2)C1 |  |  | Ki (Mu-type opioid receptor): 1670 nM |
